One data set relates to MDA-MB-468 tumor model. Briefly: In vivo efficacy in MDA-MB-468 model (EGFR ADCs). Details: species or system mouse. As to conditions: FIG. 21.
Data set [1] relates to HER-2-positive advanced or metastatic breast cancer, gastric cancer or other HER-2-expressing solid tumors. As to conditions: 0.8 mg/kg to 8.0 mg/kg once every 3 weeks, cited from earlier work.
In data set [2] the test system is advanced/metastatic breast cancer. As to conditions: cited from earlier work.

Consider “Cetuximab-CL2A-FL118: cetuximab ADC with CL2A-FL118 (Comparative Example 1) [reference compound]”, for which, in the data set with MDA-MB-468 tumor model, the tumor regression entry is listed as “tumor regression”.
Regarding “trastuzumab deruxtecan: humanized anti-HER2 antibody linked to deruxtecan through a stable linker”, the dose-limiting toxicities result in data set [1] (22 patients) is recorded as “No dose-limiting toxicities were observed”. Also, the MTD result in data set [1] is listed as “not reached”. Further, in data set [2] (5.4 mg/kg, 184 patients), the “Grade 3 or higher adverse reactions” value is listed as 57.1%; the “constipation, any grade” value is recorded as 37.5%; the “fatigue, any grade” value is 49.8%; the “hair loss, any grade” value is given as 49.8%. Besides, in data set [2] (5.4 mg/kg, 184 patients), the “leukopenia, any grade” value is given as 26.9%; the “neutropenia, any grade” value is reported as 40.3%; the “thrombocytopenia, any grade” value is 24.9%. In data set [2] (5.4 mg/kg), the “discontinuation of medication due to adverse reactions” value is 35.3%, the “dosage reduction due to adverse reactions” value is on record as 23.4%, the “interstitial lung disease as reason for discontinuation/reduction” value was 5 patients and the “treatment discontinuation due to adverse reactions” value is recorded as 15.2%. Also, the other safety risk entry in data set [2] (as with other HER-2 targeting ADCs) is “increased risk of embryo-fetal toxicity and left ventricular dysfunction”.
